Holding throughout (assay type): physicochemical
Data set [1] can be described thus: Solubility test in distilled water by HPLC. An excerpt: To test the solubility of the acid addition salts of Udenafil in distilled water, the following experiments were preformed.
The analysis conditions for HPLC were as follows:
Detector: ultraviolet ray absorbance measured at wavelength 292 nm
Column: octadecyl silica gel C18 (4.6×150 mm, 5 μm)
Mobile phase: an aqueous solution of potassium dihydrogenphosphate (0.02M):acetonitrile=70:30

Data set [2] can be described thus: Hygroscopicity test of acid addition salts of Udenafil. To be noted: exposed for 2 hours, room temperature, relative humidity 43%.
Data set [3] is described as follows: Crystallinity test of acid addition salts of Udenafil. Set-up: key: ◯: Formation of crystal; X: No formation of crystal. Here is the method:
The acid addition salts of Udenafil obtained in Examples 1 to 6 and Comparative Examples were tested for crystallinity and hygroscopicity as follows.
1) detecting whether the crystal is formed in the reaction solution, and
2) crystallization: detecting whether crystallization occurs after dissolving acid addition salt of Udenafil in a suitable solvent.

Like-named read-outs stand apart in the source and are kept apart here.

The text below walks through data of patent publication US20110306762A1, “ACID ADDITION SALT OF UDENAFIL, PREPARATION METHOD THEREOF AND PHARMACEUTICAL COMPOSITION COMPRISING THE SAME” (priority 2009, published 2011).

As for “Adipic Acid Addition Salt of Udenafil [Example 5]”, the “solubility in the distilled water” value is listed as “most excellent solubility” in data set [1] (listed as Udenafil adipiate) and “remarkably excellent solubility” in data set [1] (listed as Udenafil salt of adipic acid). Moreover, the “Hygroscopicity (weight change ratio, %)” value in data set [2] was found to be 0.9%.
“Benzenesulfonic Acid Addition Salt of Udenafil [Example 2]”: in data set [1] (HPLC, UV 292 nm), the “Average of measured peak area” value is reported as 59,654, the “First measured peak area” value is recorded as 59,985, the “second measured peak area” value is listed as 59,985 and the “third measured peak area” value is listed as 58,993. Also, in data set [2], the “Hygroscopicity (weight change ratio, %)” value was found to be 1.4%.
For the substance “Cyclamic Acid Addition Salt of Udenafil [Example 6]”, the “Hygroscopicity (weight change ratio, %)” value in data set [2] stood at 0.8%. Moreover, in data set [3] (crystallization: whether crystallization occurs after dissolving the salt in a suitable solvent), the “Crystallinity test 1-2” value was “◯”. The “Crystallinity test 1-1” value in data set [3] (detecting whether the crystal is formed in the reaction solution) is “◯”.
For the substance “Oxalic Acid Addition Salt of Udenafil [Example 1]”, the “solubility in the distilled water” value in data set [1] is listed as “remarkably excellent solubility”.
